Two compounds from PMC9414551 (Pharmaceuticals, 2022) can be followed below.

pIC50, pKi: −log10 of the molar value.

In general, pIC50 refers to −log10 of the IC50, conventionally taken in molar units. A high value points to a low IC50. A word on the pKi: it is the negative decadic logarithm of the Ki, by convention in mol/L. The low end stands for a high Ki, the high end for a low Ki.

The assay deals with NMDAR. As to conditions: rat cortical membranes; for pIC50: [3H]TCP 4 nM; for pKi: [3H]TCP, Cheng and Prusoff.

Take `C[C@]12N[C@H](Cc3ccccc31)c1ccccc12` [MK-801, dizocilpine]: the pIC50 was 8.45 and the pKi is 8.62.

As to `CC12CC3CC(C)(C1)CC(N)(C3)C2` [Memantine, memantine], the pIC50 was 6.10 and the pKi was 6.28.
